{"source": "patent US20150309029", "proteins": {"B1": {"name": "recombinant human active Gsk3β protein (protein)", "chain": "MSGRPRTTSFAESCKPVQQPSAFGSMKVSRDKDGSKVTTVVATPGQGPDRPQEVSYTDTKVIGNGSFGVVYQAKLCDSGELVAIKKVLQDKRFKNRELQIMRKLDHCNIVRLRYFFYSSGEKKDEVYLNLVLDYVPETVYRVARHYSRAKQTLPVIYVKLYMYQLFRSLAYIHSFGICHRDIKPQNLLLDPDTAVLKLCDFGSAKQLVRGEPNVSYICSRYYRAPELIFGATDYTSSIDVWSAGCVLAELLLGQPIFPGDSGVDQLVEIIKVLGTPTREQIREMNPNYTEFKFPQIKAHPWTKVFRPRTPPEAIALCSRLLEYTPTARLTPLEACAHSFFDELRDPNVKLPNGRDTPALFNFTTQELSSNPPLATILIPPHARIQAAASTPTNATAASDANTGDRGQTNNAASASASNST"}}, "key": {"[1]": {"target": "His-H-Ras (purified from E. coli C41)"}, "[2]": {"target": "GST-H-Ras (Glutathione S-transferase-H-Ras)"}}, "data": [{"protein": "B1", "values": [{"measurement": "in vitro kinase assay, 32P autoradiography", "setting": "[1]", "result": "H-Ras was strongly phosphorylated by Gsk3β"}, {"measurement": "in vitro kinase assay, 32P autoradiography", "setting": "[2]", "result": "H-Ras was strongly phosphorylated by Gsk3β"}]}]}
